Experimental data from ChEMBL document CHEMBL1126557, “Novel antiasthmatic agents with dual activities of thromboxane A2 synthetase inhibition and bronchodilation. 2. 4-(3-Pyridyl)-1(2H)-phthalazinones” (J Med Chem, 1993).

System: Thromboxane-A synthase (Oryctolagus cuniculus)
Assay: Tested in vitro against rabbit thromboxane A2 synthetase (TXA2) at 1 uM

SMILES: Cn1nc(-c2cncs2)c2ccccc2c1=O
- inhibition: 55%
